From patent US20260207704A1, “STAPLED PEPTIDES AND METHODS THEREOF” (priority 2022, published 2026) come the findings set out here.

Sequences of proteins named here, by UniProt entry; tags and fusion partners are left off.
UniProt P35222, whole entry: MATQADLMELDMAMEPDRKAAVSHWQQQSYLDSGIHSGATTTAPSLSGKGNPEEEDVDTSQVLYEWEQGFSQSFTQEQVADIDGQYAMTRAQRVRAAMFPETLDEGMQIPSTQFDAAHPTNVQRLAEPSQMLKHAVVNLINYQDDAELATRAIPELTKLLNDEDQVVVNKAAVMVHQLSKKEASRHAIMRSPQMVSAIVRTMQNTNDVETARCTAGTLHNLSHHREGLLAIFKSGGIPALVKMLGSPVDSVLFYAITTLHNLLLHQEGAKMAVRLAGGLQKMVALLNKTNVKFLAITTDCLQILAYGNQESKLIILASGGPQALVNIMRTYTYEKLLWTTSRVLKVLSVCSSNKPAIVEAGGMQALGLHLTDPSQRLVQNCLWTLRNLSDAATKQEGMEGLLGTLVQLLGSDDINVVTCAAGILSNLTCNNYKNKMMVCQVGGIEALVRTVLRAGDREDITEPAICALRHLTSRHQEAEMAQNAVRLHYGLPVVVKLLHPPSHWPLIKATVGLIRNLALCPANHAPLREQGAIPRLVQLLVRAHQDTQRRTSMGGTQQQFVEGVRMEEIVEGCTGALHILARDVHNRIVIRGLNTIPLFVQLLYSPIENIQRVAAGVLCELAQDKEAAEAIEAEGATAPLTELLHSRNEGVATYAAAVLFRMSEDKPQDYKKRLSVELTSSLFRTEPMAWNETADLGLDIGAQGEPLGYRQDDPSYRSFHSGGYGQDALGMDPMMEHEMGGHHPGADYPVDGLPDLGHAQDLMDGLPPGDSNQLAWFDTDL

A word on the IC50: it is the midpoint of a concentration-inhibition curve.

The target in the experiment is beta-catenin (Homo sapiens, UniProt P35222). As to the kind of experiment: fluorescence polarization binding to beta-catenin. The note with it: beta-Catenin FP IC50 (nM). In general terms: Polarisation of emitted light reports the rotation of a fluorescent probe.
Regarding `CC(=O)N1CCC[C@]12CC=CCCCC1(CCCC=CCCCOC(=O)N3CC[C@@]4(C3)NC(=O)[C@H](CC(C)C)NC(=O)[C@H](Cc3ccccc3)NC(=O)[C@H](C)NC(=O)[C@H](CCCCNC(=O)c3cccc(c3)-c3cccc(c3)C(=O)NCCCC[C@@H](C(N)=O)NC(=O)[C@H](Cc3csc5ccccc35)NC(=O)[C@H](Cc3ccccc3Cl)NC4=O)NC(=O)[C@H](Cc3cccc(C(=O)O)c3)NC(=O)[C@H](CC(=O)O)NC1=O)NC(=O)[C@H](CC(C)(C)C)NC(=O)[C@H](CC(=O)O)NC2=O` (stereo partly drawn) [I-54, Ac-PL3-Asp-Npg-B5-Asp-3COOHF-[Biphen33COOH]Lys-Ala-Phe-Leu-PyrS2-2ClF-BztA-Lys-NH2], the IC50 lay within 50 to 200 nM.

Consider `CC(=O)N1CCC[C@]12CC=CCCCC1(CCCC=CCCCOC(=O)N3CC[C@@]4(C3)NC(=O)[C@H](CC(C)C)NC(=O)[C@H](Cc3ccccc3)NC(=O)[C@H](C)NC(=O)[C@H](CCC(=O)NCCCCNC(=O)CC[C@@H](C(=O)N[C@@H](C)C(N)=O)NC(=O)[C@H](Cc3csc5ccccc35)NC(=O)[C@H](Cc3ccccc3C(F)(F)F)NC4=O)NC(=O)[C@H](Cc3cccc(C(=O)O)c3)NC(=O)[C@H](CC(=O)O)NC1=O)NC(=O)[C@H](CC(C)(C)C)NC(=O)[C@H](CC(=O)O)NC2=O` (stereo partly drawn) [I-92, Ac-PL3-Asp-Npg-B5-Asp-3COOHF-GlnR-Ala-Phe-Leu-PyrS2-2F3MeF-BztA-[diaminobutane]GlnR-Ala-NH2], for which the IC50 is under 50 nM.

Compound `CC(=O)N1CCC[C@]12CC=CCCCC1(CCCC=CCCCOC(=O)N3CC[C@@]4(C3)NC(=O)[C@H](CC(C)C)NC(=O)[C@H](Cc3ccccc3)NC(=O)[C@H](C)NC(=O)[C@H](CCC(=O)NC3CCN(CC3)C(=O)CC[C@@H](C(=O)N[C@@H](C)C(N)=O)NC(=O)[C@H](Cc3csc5ccccc35)NC(=O)[C@H](Cc3ccccc3C(F)(F)F)NC4=O)NC(=O)[C@H](Cc3cccc(C(=O)O)c3)NC(=O)[C@H](CC(=O)O)NC1=O)NC(=O)[C@H](CC(C)(C)C)NC(=O)[C@H](CC(=O)O)NC2=O` (stereo partly drawn) [I-93, Ac-PL3-Asp-Npg-B5-Asp-3COOHF-GlnR-Ala-Phe-Leu-PyrS2-2F3MeF-BztA-[4aminopiperidine]GlnR-Ala-NH2] came in with an IC50 of 200 to 750 nM.

`CC(=O)N1CCC[C@]12CC=CCCCC1(CCCC=CCCCOC(=O)N3CC[C@@]4(C3)NC(=O)[C@H](CC(C)C)NC(=O)[C@H](Cc3ccccc3)NC(=O)[C@H](C)NC(=O)[C@H](CCC(=O)N3CCC(CC3)NC(=O)CC[C@@H](C(=O)N[C@@H](C)C(N)=O)NC(=O)[C@H](Cc3csc5ccccc35)NC(=O)[C@H](Cc3ccccc3C(F)(F)F)NC4=O)NC(=O)[C@H](Cc3cccc(C(=O)O)c3)NC(=O)[C@H](CC(=O)O)NC1=O)NC(=O)[C@H](CC(C)(C)C)NC(=O)[C@H](CC(=O)O)NC2=O` (stereo partly drawn) [I-94, Ac-PL3-Asp-Npg-B5-Asp-3COOHF-[4aminopiperidine]GlnR-Ala-Phe-Leu-PyrS2-2F3MeF-BztA-GlnR-Ala-NH2] showed an IC50 of 200 to 750 nM.

`CC(=O)N1CCC[C@]12CC=CCCCC1(CCCC=CCCCOC(=O)N3CC[C@@]4(C3)NC(=O)[C@H](CSCc3ccc5cc(ccc5c3)CSC[C@@H](C(=O)N[C@@H](C)C(N)=O)NC(=O)[C@H](Cc3csc5ccccc35)NC(=O)[C@H](Cc3ccsc3)NC4=O)NC(=O)[C@H](Cc3ccccc3)NC(=O)[C@H](C)NC(=O)C(C)(C)NC(=O)[C@H](Cc3cccc(C(=O)O)c3)NC(=O)[C@H](CC(=O)O)NC1=O)NC(=O)[C@H](CC(C)(C)C)NC(=O)[C@H](CC(=O)O)NC2=O` (stereo partly drawn) [I-566, Ac-PL3-Asp-Npg-B5-Asp-3COOHF-Aib-Ala-Phe-[2_6-naph]Cys-PyrS2-3Thi-BztA-Cys-Ala-NH2] had an IC50 of 50 to 200 nM.

`CC(=O)N1CCC[C@]12CC=CCCCC1(CCCC=CCCCOC(=O)N3CC[C@@]4(C3)NC(=O)[C@H](CSCc3cccc(c3)-c3cccc(c3)CSC[C@@H](C(=O)N[C@@H](C)C(N)=O)NC(=O)[C@H](Cc3csc5ccccc35)NC(=O)[C@H](Cc3ccsc3)NC4=O)NC(=O)[C@H](Cc3ccccc3)NC(=O)[C@H](C)NC(=O)C(C)(C)NC(=O)[C@H](Cc3cccc(C(=O)O)c3)NC(=O)[C@H](CC(=O)O)NC1=O)NC(=O)[C@H](CC(C)(C)C)NC(=O)[C@H](CC(=O)O)NC2=O` (stereo partly drawn) [I-567, Ac-PL3-Asp-Npg-B5-Asp-3COOHF-Aib-Ala-Phe-[3_3-biph]Cys-PyrS2-3Thi-BztA-Cys-Ala-NH2] returned an IC50 of 50 to 200 nM.
